Source: patent publication US10464907B2, “Compound having HSP90 inhibitory activity or pharmaceutically acceptable salt thereof, and medical use thereof” (priority 2016, dated 2019)

Biological target: HSP90α (Homo sapiens (Human), UniProt P07900)
Assay: Fluorescence polarization assay, binding ability to HSP90, benzamide compounds
Description: 1 M dithiothreitol (DTT), 10 mg/m: BGG (bovine gamma globulin) were added to hexafluorobenzene (HFB) buffer (20 mM HEPES pH 7.3, 50 mM KCl, 5 mM MgCl2, 20 mM Na2MoO4, 0.01% NP4O, 3rd distilled water) and mixed. Then, 100 nM […] (GA)-FITC (Fluorescein isothiocyanate) was added and reacted at room temperature for 10 minutes. Each 100 μL of the mixture was dispensed into the control wells of a 96-well plate, 2 μL of HSP90α was added to the remaining mixture, and each 100 μL of the other wells was dispensed. […] The binding ability of the compound to HSP90 was expressed as mP (millipolarization unit=1000 mP unit).

Row | Compound | IC50 [µM]
1 | O=C(NCc1ccccc1)c1cc(Cl)c(O)cc1O [Compound 14a, N-Benzyl-5-chloro-2,4-dihydroxybenzamide] | 6.68
2 | CC(C)c1cc(C(=O)N(C)Cc2ccccc2)c(O)cc1O [Compound 21g, N-benzyl-2,4-dihydroxy-5-isopropyl-N-methylbenzamide] | 0.033
